Data on 1 molecule can be found in ChEMBL document CHEMBL1140723, “Positive and negative modulation of group I metabotropic glutamate receptors” (J Med Chem, 2008).

Chains of the proteins cited; added tags and fusions are not shown.
UniProt P31424, whole entry: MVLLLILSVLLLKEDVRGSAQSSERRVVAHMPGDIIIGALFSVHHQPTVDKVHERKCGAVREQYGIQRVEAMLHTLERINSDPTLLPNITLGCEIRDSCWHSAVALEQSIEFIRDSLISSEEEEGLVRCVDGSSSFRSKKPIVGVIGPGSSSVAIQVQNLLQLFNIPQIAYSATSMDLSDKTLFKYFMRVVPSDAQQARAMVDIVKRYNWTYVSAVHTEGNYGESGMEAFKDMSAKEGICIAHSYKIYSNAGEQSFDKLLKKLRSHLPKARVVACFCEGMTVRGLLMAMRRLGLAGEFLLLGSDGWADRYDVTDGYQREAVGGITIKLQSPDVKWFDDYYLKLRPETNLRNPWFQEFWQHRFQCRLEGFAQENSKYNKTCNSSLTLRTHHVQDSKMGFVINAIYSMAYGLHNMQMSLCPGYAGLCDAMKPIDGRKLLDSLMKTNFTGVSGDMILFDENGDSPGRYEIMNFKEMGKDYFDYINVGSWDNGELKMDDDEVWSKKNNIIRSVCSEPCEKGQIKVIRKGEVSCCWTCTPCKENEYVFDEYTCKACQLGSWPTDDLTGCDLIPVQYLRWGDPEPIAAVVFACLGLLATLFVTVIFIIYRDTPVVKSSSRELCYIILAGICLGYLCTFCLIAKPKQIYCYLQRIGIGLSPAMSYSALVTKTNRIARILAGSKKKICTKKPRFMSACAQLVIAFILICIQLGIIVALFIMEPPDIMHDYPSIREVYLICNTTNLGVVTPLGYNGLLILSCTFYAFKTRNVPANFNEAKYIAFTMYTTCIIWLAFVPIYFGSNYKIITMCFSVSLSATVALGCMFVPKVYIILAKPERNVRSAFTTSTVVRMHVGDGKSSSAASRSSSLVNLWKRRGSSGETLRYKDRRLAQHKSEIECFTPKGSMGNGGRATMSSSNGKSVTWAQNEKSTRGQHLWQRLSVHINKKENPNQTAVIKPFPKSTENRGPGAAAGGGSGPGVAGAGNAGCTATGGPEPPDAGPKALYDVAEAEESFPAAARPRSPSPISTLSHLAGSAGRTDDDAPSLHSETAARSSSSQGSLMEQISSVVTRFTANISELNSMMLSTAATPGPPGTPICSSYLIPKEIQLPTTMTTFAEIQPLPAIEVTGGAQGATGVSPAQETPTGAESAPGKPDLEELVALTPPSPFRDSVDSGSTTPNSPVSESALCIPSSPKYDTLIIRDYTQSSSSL

This assay addresses Metabotropic glutamate receptor 5 (Rattus norvegicus, UniProt P31424). As to the kind of experiment: Displacement of [3H]MPEP from rat mGluR5. The essentials: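 Membranes were washed four times in 50 mM Tris-HCl pH 8.0 and resuspended in 50 mM Tris-HCl pH 7.5. 125–250 µg protein was incubated with 5 nM [3H]MPEP and test agent (up to 10 µM), up to 5% DMSO, 60 min at RT. Nonspecific binding: 10 µM MPEP. Filtered on glass fibre filters, rinsed with ice-cold buffer, then scintillation counted.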

`[3H]C([3H])([3H])c1cccc(C#Cc2ccccc2)n1` yielded a concentration for half-maximal inhibition (IC50) of 13 nM and a Ki of 12 nM.
